Yeast mating assay 1: variants of the scFv Ab-14

Binding partner: SARS-CoV-2 spike HR2 peptide, sequence PDVDLGDISGINAS.

Each scFv is VH, three GGGGS repeats, VL, as in the parent Ab-14, and differs from it in the CDRs of the heavy chain only.
VH: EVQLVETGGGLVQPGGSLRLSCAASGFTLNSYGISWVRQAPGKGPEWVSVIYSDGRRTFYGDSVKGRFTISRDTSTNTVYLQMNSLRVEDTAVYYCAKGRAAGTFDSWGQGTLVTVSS
VL: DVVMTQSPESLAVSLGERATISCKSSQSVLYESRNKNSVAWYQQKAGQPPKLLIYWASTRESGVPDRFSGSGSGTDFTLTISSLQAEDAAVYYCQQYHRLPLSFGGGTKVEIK

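Library AAYL49 holds single substitutions and randomly drawn double and triple substitutions in the CDRs. In AlphaSeq, yeast of one mating type display the scFv and yeast of the other type display the target. The frequency of each diploid, read from paired DNA barcodes, reflects how well the two displayed proteins bind. Read counts were normalised to the haploid input and turned into Kd by a linear fit to BCL2-family pairs of known affinity, for each replicate. There are three technical replicates.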

Each variant is given by its three heavy chain CDRs, as the data file delimits them; those of the parent are GFTLNSYGIS, VIYSDGRRTFYGDSVK, GRAAGTFDS. All variants listed here change Y60 of the VH, counted from its first residue. Kd is apparent (estimated from mating counts) and averaged on the log scale over replicates with a signal. Smaller is tighter. Where no diploid with the target was found in any replicate, the entry reads "no signal": below detection, most likely a poor binder, though not proof of it. The list is sorted by this average, lowest first, undetected variants last. Three control strains display no target. For library AAYL49, 15% of the pairings with them gave a signal, with a median of 11 µM and one signal in twenty below 680 nM, so weak values seen in few replicates may be background. Also given: how often the same scFv was detected with the empty control strains.

For GFTLNSYGIS | VIYSDGTRTFFGDSVK | GRAAFTFDS, the assay gave 68 nM (3 of 3 replicates; controls 0 of 9). The variant GFTLNSYGIS | VIYSDGVRTFMGDSVK | GRAAKTFDS gave 77 nM (3 of 3 replicates; controls 2 of 9). For GFTLNSYGIS | VIYSDGRRTFIGDSVK | GRAAGTFDS, the assay gave 88 nM (3 of 3 replicates; controls 0 of 9). For GFTLNSYGIS | VIYSDGQRTFAGDSVK | GRAAGLFDS, the assay gave 100 nM (1 of 3 replicates; controls 1 of 9). For GFTLNSYGIS | VIYSDGRRTFMGDSVK | GRAAGTFDS, the assay gave 460 nM (3 of 3 replicates; controls 0 of 9). For GFTLQSYGIS | VIYSDGRRTFLIDSVK | GRAAGTFDS, the assay gave 530 nM (3 of 3 replicates; controls 5 of 9). For GFTLNSYGIS | VIYSDGRRTFSGDSVK | GRAAGTFDS, the assay gave 700 nM (3 of 3 replicates; controls 2 of 9). With GFTLNSYGIS | VIYSDGRRTFVGDSVK | GRAAGTRDS the result was 2.2 µM (3 of 3 replicates; controls 0 of 9). The variant GFTLNSYGIS | VIYSMGRRTFPGDSVF | GRAAGTFDS showed 2.8 µM (1 of 3 replicates; controls 1 of 9).

For GFTLNSYQIS | RIYSDGRRTFEGDSVK | GRAAGTFDS, the assay gave 3.1 µM (1 of 3 replicates; controls 4 of 9). The variant IFTLNSYGIS | MIYSDGRRTFNGDSVK | GRAAGTFDS showed 4.1 µM (2 of 3 replicates; controls 2 of 9). The variant GFTLNSYGIT | VIYSDGRRTFKGDSVK | GRDAGTFDS showed 4.2 µM (2 of 3 replicates; controls 4 of 9). The variant GFTLNSYGIS | VIYSDGRRTFSGDSVK | GRACKTFDS gave 9.3 µM (2 of 3 replicates; controls 0 of 9). With GFTLNSYGIS | VIYSDGRRTFDGDSVK | GRAAGTFDS the result was 12 µM (2 of 3 replicates; controls 0 of 9). The variant RFTLNSYGIS | VIYCDGRRTFLGDSVK | GRAAGTFDS showed 16 µM (1 of 3 replicates; controls 0 of 9). The variant GQTLNSYGHS | VIYSDGRRTFRGDSVK | GRAAGTFDS showed 19 µM (3 of 3 replicates; controls 3 of 9). For GFTLNSYGIS | VIYSDGRRTEVGESVK | GRAAGTFDS, the assay gave 20 µM (1 of 3 replicates; controls 2 of 9). For GETLNSYGIS | VTYSDGRRTFVGDSVK | GRAAGTFDS, the assay gave 26 µM (2 of 3 replicates; controls 2 of 9).

With GFTLNSYGIS | VIYSDGRRTFLGDHVK | GRAAGTFDD the result was 27 µM (2 of 3 replicates; controls 4 of 9). For GFTLNSYGIS | VINSDGRRTFSSDSVK | GRAAGTFDS, the assay gave 31 µM (2 of 3 replicates; controls 5 of 9). The variant GFTLNSYGIS | VIYSDGRRTEWGDSVK | GRAAGTFDS showed 35 µM (2 of 3 replicates; controls 5 of 9). With AFTLNSYGIS | VIYSDGRRTFCGGSVK | GRAAGTFDS the result was 35 µM (2 of 3 replicates; controls 5 of 9). The variant GFTLNSYGIS | VIYPDGRRTFCGDSVK | GRAANTFDS gave 37 µM (2 of 3 replicates; controls 0 of 9). For GFTLNSYGIS | VIYSDGRGTYKGDSVK | GRAAGTFDS, the assay gave 65 µM (1 of 3 replicates; controls 2 of 9). The variant GFTLNSYGIS | VIYSWGRRTFIGDSVK | GRAAGTIDS gave 76 µM (1 of 3 replicates; controls 2 of 9). The variant GFTLNSYGIS | VIYTDGRRTFQGDSVK | GRAAGTFRS gave 100 µM (3 of 3 replicates; controls 6 of 9). For GFTLNSYGIS | VIYSDGRRTFPGDSVK | GHAAGTFYS, the assay gave 110 µM (2 of 3 replicates; controls 1 of 9).

The variant GFTLNSYAIS | VIYSDGRFTFTGDSVK | GRAAGTFDS gave no signal (0 of 3 replicates; controls 0 of 9). For GFTLNSYGIS | VIYYDGRSTFWGDSVK | GRAAGTFDS, the assay gave no signal (0 of 3 replicates; controls 0 of 9). For GFTLNSYGIS | VIYIDGRRTFHGDSTK | GRAAGTFDS, the assay gave no signal (0 of 3 replicates; controls 0 of 9). For GFTLVSYGIT | VIYSDGRRTFMGDSVK | GRAAGTFDS, the assay gave no signal (0 of 3 replicates; controls 0 of 9). For GFTLNSYGIS | VIYHDGRRTFPGDSVK | GRAAGTFGS, the assay gave no signal (0 of 3 replicates; controls 2 of 9). For GFTLNSYGIS | VIYSDGRRTFWGDSVK | GRAAGCFVS, the assay gave no signal (0 of 3 replicates; controls 0 of 9). With GFTFNSYGIS | VIYSDGRRTFAGDSVK | GRAAGTFGS the result was no signal (0 of 3 replicates; controls 0 of 9). The variant GFTLNSYGTS | VIYSDGRRTFAGDSWK | GRAAGTFDS gave no signal (0 of 3 replicates; controls 1 of 9). For GFTLNSQGIS | VIYSDGRRTKHGDSVK | GRAAGTFDS, the assay gave no signal (0 of 3 replicates; controls 1 of 9).

For GFTLRSYGIS | VIYSDGRRTFQGDSVK | KRAAGTFDS, the assay gave no signal (0 of 3 replicates; controls 0 of 9). For GFTLNSYGMS | VIYSDGRRTFFGDSVK | GRAAGTFDS, the assay gave no signal (0 of 3 replicates; controls 1 of 9). The variant GFTLNSYPIS | VIYSDGRRTFRGDSVK | GRAAGTFDS showed no signal (0 of 3 replicates; controls 0 of 9). For NFTLNSYGIS | VIYSDGRRTFHGDSAK | GRAAGTFDS, the assay gave no signal (0 of 3 replicates; controls 0 of 9). The variant GFTLNSYGIS | VIYSDGRRTFWGDSVK | GKAAGTFDY showed no signal (0 of 3 replicates; controls 5 of 9). For GFTLNSYGSS | VIYSDGRRTFKGDSVK | GRAALTFDS, the assay gave no signal (0 of 3 replicates; controls 0 of 9). The variant GFTLNSYGIS | VIYSDGRRTFDMDSVK | IRAAGTFDS gave no signal (0 of 3 replicates; controls 0 of 9). For GFTLNGYGIS | VIYSDGRRTFKGDSVK | GRAAGTFDR, the assay gave no signal (0 of 3 replicates; controls 0 of 9). With GFTLNSYGIS | VIYSDGRSTFLGDSVK | GRAAGTFDS the result was no signal (0 of 3 replicates; controls 1 of 9).

With EFTLNSYGIS | VIYSDGRRTFRGDSVK | GRAAGTFDS the result was no signal (0 of 3 replicates; controls 0 of 9). The variant GFTINSYGIS | VIYSDGRRTFDGDSVK | GRAAGTFYS showed no signal (0 of 3 replicates; controls 0 of 9). For GCCLNSYGIS | VIYSDGRRTFKGDSVK | GRAAGTFDS, the assay gave no signal (0 of 3 replicates; controls 0 of 9). For GFTLNSYGIS | VIYSDGRRTFQGDSVL | GRGAGTFDS, the assay gave no signal (0 of 3 replicates; controls 1 of 9).

The closing 4 entries, repeated:

With EFTLNSYGIS | VIYSDGRRTFRGDSVK | GRAAGTFDS the result was no signal (0 of 3 replicates; controls 0 of 9).
With GFTINSYGIS | VIYSDGRRTFDGDSVK | GRAAGTFYS the result was no signal (0 of 3 replicates; controls 0 of 9).
With GCCLNSYGIS | VIYSDGRRTFKGDSVK | GRAAGTFDS the result was no signal (0 of 3 replicates; controls 0 of 9).
With GFTLNSYGIS | VIYSDGRRTFQGDSVL | GRGAGTFDS the result was no signal (0 of 3 replicates; controls 1 of 9).

Source: Engelhart et al. 2022 (doi:10.1038/s41597-022-01779-4), MIT Lincoln Laboratory and A-Alpha Bio; data file from the FLAb repository.